# Test results from patent US20110104716A1, “NOVEL METHOD FOR SCREENING BRAIN-ACTIVE COMPOUNDS” (priority 2007, published 2011).
# Tested on: hippocampal slices
# Test: Hippocampal slice cultures and induction of LTP (immunohistochemistry of LTP markers)
# Type: cell-based, Wistar rats
# Settings: compared to vehicle treated sections set as 100%; 15 min treatment
# Procedure: Seven-day-old Wistar rats were decapitated using a guillotine. In less than 1 minute the skull was opened, the cerebral hemispheres were separated and transferred and both hippocampi were dissected and transferred into ice cold buffer containing 137 mM NaCl, 5 mM KCl, 0.85 mM Na2HPO4, 1.5 mM CaCl2, 0.66 mM KH2PO4, 0.28 mM MgSO4, 1 mM MgCl2, 2.7 mM NaHCO3, 1 mM Kynurenic acid and 0.6% D-glucose. Transversal hippocampal slices (typically 400 μm) were prepared using a vibrating blade microtome (VT1200S; Leica Microsystems (Schweiz) AG, Heerbrugg, Switzerland) in the same buffer. Hippocampal slices were individually placed on a membrane insert (Millicell Culture Plate Inserts, 0.4 μm) and cultivated at 35° C., 5% CO2, 95% humidity in a medium containing a 1:1 mixture of BME and MEM (both from Invitrogen) containing 25% heat-inactivated horse serum, 1× GlutaMAX, 1× Penicillin/Streptomycin, 0.6% glucose and 1 mM Kynurenic acid (Stoppini et al. 1991 J Neurosci Methods 37(2):173-82). […] Sarcosine (100 μM) and ALX5407 (20 nM) were used routinely as positive controls. An additional positive control comprised the addition of 200 μM glycine to sister cultures. […] Markers of enhanced synaptic activity, normally associated with LTP, representing an in vitro (or ex vivo) model of learning and memory, were quantified (see Table 1, below). […]
structure (smiles),measurement,value
NCC(=O)O [Glycine],AMPA rec. (AMPA receptors on the cell surface),123-298%
